Experimental data: patent US8673906B2, “Chromenone derivatives” (AstraZeneca AB, priority 2010, dated 2014)
Like-named read-outs stand apart in the source and are kept apart here.

Chains of the proteins cited; added tags and fusions are not shown. Lines headed by an entry give the natural chain unless they say otherwise; changes in a name come on top.
UniProt P42338: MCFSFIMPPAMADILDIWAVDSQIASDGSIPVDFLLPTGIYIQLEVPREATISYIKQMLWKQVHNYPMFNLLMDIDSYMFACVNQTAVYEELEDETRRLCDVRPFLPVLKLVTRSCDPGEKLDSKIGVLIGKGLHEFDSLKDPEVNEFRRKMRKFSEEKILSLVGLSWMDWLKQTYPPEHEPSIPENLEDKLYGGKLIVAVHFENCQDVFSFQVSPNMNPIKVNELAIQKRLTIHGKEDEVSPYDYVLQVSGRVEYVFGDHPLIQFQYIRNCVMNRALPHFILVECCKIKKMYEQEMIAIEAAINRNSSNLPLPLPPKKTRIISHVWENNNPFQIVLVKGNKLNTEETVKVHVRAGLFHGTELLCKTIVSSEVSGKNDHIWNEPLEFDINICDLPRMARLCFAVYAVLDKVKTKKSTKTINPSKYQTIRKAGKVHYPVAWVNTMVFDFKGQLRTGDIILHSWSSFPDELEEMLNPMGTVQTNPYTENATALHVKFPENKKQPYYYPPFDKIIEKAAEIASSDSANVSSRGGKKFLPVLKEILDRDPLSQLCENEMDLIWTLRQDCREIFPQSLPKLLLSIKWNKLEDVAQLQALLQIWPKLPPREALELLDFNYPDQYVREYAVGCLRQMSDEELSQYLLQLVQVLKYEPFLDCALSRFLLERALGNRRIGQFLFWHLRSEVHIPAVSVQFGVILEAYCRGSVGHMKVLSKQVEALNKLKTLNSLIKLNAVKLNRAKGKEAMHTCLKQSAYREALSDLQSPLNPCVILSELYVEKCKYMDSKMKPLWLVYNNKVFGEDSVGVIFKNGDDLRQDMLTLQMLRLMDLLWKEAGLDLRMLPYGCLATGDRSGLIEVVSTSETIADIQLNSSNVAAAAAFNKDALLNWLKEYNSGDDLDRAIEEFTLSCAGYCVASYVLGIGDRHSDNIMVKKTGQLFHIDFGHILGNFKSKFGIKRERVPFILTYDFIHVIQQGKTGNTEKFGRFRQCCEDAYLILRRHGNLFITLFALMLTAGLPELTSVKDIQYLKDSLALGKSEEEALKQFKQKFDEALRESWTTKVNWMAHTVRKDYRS

Biological target: PI3Kβ (Homo sapiens (Human), UniProt P42338)
Test: In vitro enzyme inhibition assay (Kinase Glo based enzyme activity assay)
Format: biochemical
Settings: for IC50: Test (a)
Description: (a) In Vitro Enzyme Inhibition Assay
The inhibition of PI3Kβ, PI3Kα, PI3Kγ and PI3Kδ was evaluated in a Kinase Glo based enzyme activity assay using human recombinant enzymes. The assay measures depletion of ATP after incubation with enzyme, PIP2 and ATP plus compound. ATP at the end of the reaction is detected by addition of Kinase Glo reagent, in this the Ultra Glo™ luciferase (Promega) uses the ATP as a substrate to catalyze the mono-oxygenation of luciferin and the generation of light. A direct relationship exists between the luminescence measured with the Kinase-Glo Plus Reagent and the amount of ATP remaining in a completed kinase reaction and luminescence is inversely related to kinase activity. Twelve different compound concentrations were tested and raw data from the inhibition of PI3 Kb, PI3Kα, PI3Kγ and PI3Kδ was plotted versus inhibitor concentration.
Compounds in 100% DMSO were added to assay plates by acoustic dispensing. PI3Kβ was added in a Tris buffer (50 mM Tris pH7.4, 0.05% CHAPS, 2.1 mM DTT, and 10 mM MgCl2) and allowed to preincubate with compound for 20 minutes prior to addition of substrate solution containing PIP2 and ATP. The enzyme reaction was stopped after 80 minutes by the addition of Kinase Glo detection solution. Plates were left for 30 minutes at room temperature then read on a Pherastar Instrument (Luminescence ATP 384 program) setting gain on max well. The final concentration of DMSO, ATP and PIP2 in the assay were, 1%, 80 μM, and 80 μM respectively.
IC50 values were calculated using a log curve fitting to a non-linear regression package, fitting raw data to inhibitor concentration.

[1] = human recombinant enzyme, read-out: PI3Kβ inhibition, IC50
[2] = approximate value, read-out: IC50 versus PI3Kβ

| Compound | IC50 [1] | activity of enantiomer relative to the other enantiomer (PI 3-kinase inhibitory activity, (+) versus (−) enantiomer of Example 3.06) | IC50 [2] |
| --- | --- | --- | --- |
| CC(c1cc(C(=O)N(C)C)cc2c(=O)cc(N3CCOCC3)oc12)N(C)c1cc(F)cc(F)c1 (single isomer, unassigned) [Example 5.0b, 8-(1-((3,5-difluorophenyl)(methyl)amino)ethyl)-N,N-dimethyl-2-morpholino-4-oxo-4H-chromene-6-carboxamide] | 1240 nM |  |  |
| CC(Nc1cccc(F)c1)c1cc(C(=O)N(C)C)cc2c(=O)cc(N3CCOCC3)oc12 (centres unmarked) [Example 3.12, 8-(1-(3-fluorophenylamino)ethyl)-N,N-dimethyl-2-morpholino-4-oxo-4H-chromene-6-carboxamide] | 7 nM |  |  |
| CC(Nc1cc(F)cc(F)c1)c1cc(C(=O)N(C)C)cc2c(=O)cc(N3CCOCC3)oc12 (single isomer, unassigned) [Example 3.06a, 8-(1-(3,5-difluorophenylamino)ethyl)-N,N-dimethyl-2-morpholino-4-oxo-4H-chromene-6-carboxamide] | 3700 nM | weaker activity |  |
| CC(Nc1cc(F)cc(Cl)c1)c1cc(C(=O)N(C)C)cc2c(=O)cc(N3CCOCC3)oc12 (centres unmarked) [Example 3.14, 8-(1-(3-chloro-5-fluorophenylamino)ethyl)-N,N-dimethyl-2-morpholino-4-oxo-4H-chromene-6-carboxamide] | 4 nM |  |  |
| CC(Nc1cc(F)cc(C#N)c1)c1cc(C(=O)N(C)C)cc2c(=O)cc(N3CCOCC3)oc12 (centres unmarked) [Example 3.17, 8-(1-(3-cyano-5-fluorophenylamino)ethyl)-N,N-dimethyl-2-morpholino-4-oxo-4H-chromene-6-carboxamide] | 6 nM |  |  |
| CC(Nc1cc(F)cc(F)c1)c1cc(C(=O)N(C)C)cc2c(=O)cc(N3CCOCC3)oc12 (single isomer, unassigned; (-)) [Example 3.06b, (−)-8-(1-(3,5-difluorophenylamino)ethyl)-N,N-dimethyl-2-morpholino-4-oxo-4H-chromene-6-carboxamide] | 2 nM |  | ~2 nM |
| CC(Nc1cc(F)cc(F)c1)c1cc(C(=O)N2CCC2)cc2c(=O)cc(N3CCOCC3)oc12 (centres unmarked) [Example 4.08, 6-(azetidine-1-carbonyl)-8-(1-(3,5-difluorophenylamino)ethyl)-2-morpholino-4H-chromen-4-one] | 5 nM |  |  |
| CC(Nc1cc(F)cc(F)c1)c1cc(C(=O)N(C)C)cc2c(=O)cc(N3CCOCC3)oc12 (racemic) [Example 3.06, 8-(1-(3,5-difluorophenylamino)ethyl)-N,N-dimethyl-2-morpholino-4-oxo-4H-chromene-6-carboxamide] | 6 nM |  | ~6 nM |
